# scFv variants of Ab-95 (light chain) against a SARS-CoV-2 spike peptide

The target is the same throughout: PDVDLGDISGINAS, from the HR2 region of SARS-CoV-2 spike.

The variants keep the heavy chain, the linker and the frameworks of Ab-95 (scFv order VH, a (GGGGS)3 linker, VL).
VH: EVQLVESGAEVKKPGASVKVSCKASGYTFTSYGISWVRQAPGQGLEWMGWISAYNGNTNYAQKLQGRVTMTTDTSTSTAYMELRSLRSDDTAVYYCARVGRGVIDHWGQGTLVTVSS
VL: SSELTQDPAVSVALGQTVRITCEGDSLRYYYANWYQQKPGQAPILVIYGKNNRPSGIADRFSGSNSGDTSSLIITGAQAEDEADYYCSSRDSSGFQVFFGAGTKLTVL

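The parent was found by panning a naive human phage display library on the peptide. In library AAYL52, one, two or three CDR residues were substituted; doubles and triples were drawn at random. AlphaSeq pools MATa yeast showing the antibodies with MATalpha yeast showing the peptide. Binding brings cells together so that they mate, and sequencing counts the barcode pairs among the diploids. A regression on co-assayed BCL2-family reference pairs converts the normalised counts of each replicate to an apparent Kd. Mating was done three times.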

The parent's light chain CDRs are EGDSLRYYYAN, GKNNRPS, SSRDSSGFQVF; each variant's own CDRs replace them letter for letter.
The read-out is the apparent dissociation constant on a log10 scale (nM): the lower, the stronger.
An entry "nd" has no value in the source: the pair was not observed among the diploids in that replicate. This suggests poor binding but is not conclusive.
In this assay the parent's reference entry averaged 2.31; its copy inside this library read 2.25.
Nonspecific signal, from three strains lacking the peptide, appeared in 28% of pairings of library AAYL52, centred on 3.91 (5% of these signals below 2.90); values are not corrected for it. For each scFv, signals with the empty controls are counted beside the result.

For EGDSLRYYYAN / GKNVRPS / EKRDSSGFQVF, the assay gave 2.80, 2.48, 1.89 (controls 1 of 9).
For EGDWLRYYYAN / HKNNRPS / SSRDSSGFEVF, the assay gave 4.47, nd, nd (controls 1 of 9).
For EGDHLRYYYAN / GKNNRPS / DSRDLSGFQVF, the assay gave nd, nd, nd (controls 0 of 9).
For EGDSLRYYYAN / GKNNRPS / SSRDSSGCQLF, the assay gave 3.50, 5.45, nd (controls 3 of 9).
For EGHSLRYYYAN / GINNRPS / SSRDSRGFQVF, the assay gave 2.67, 4.42, 3.13 (controls 1 of 9).
For EGKSLRYYYAN / GKNIRPS / SSRDSSGCQVF, the assay gave 2.79, 2.57, 2.47 (controls 5 of 9).
For EGDSLRYYYAN / GKNNRPS / SSRYSAGFQVF, the assay gave 2.69, 2.49, 2.18 (controls 5 of 9).
For EGDSLRYYYAN / GKNNRPS / SMRDSSGFQIS, the assay gave 4.39, 3.73, 4.56 (controls 1 of 9).
For YGDSLRYYYPN / GKNNAPS / SSRDSSGFQVF, the assay gave 2.89, 2.32, 2.44 (controls 2 of 9).
For EGRSLRYYYAN / GKNNRPS / SSRDTSGFQVS, the assay gave 2.50, 2.47, 2.01 (controls 6 of 9).
For EWDSLRYYYAN / GKNNRTS / SSRHSSGFQVF, the assay gave nd, 4.34, nd (controls 4 of 9).
For EGDSLRYFYAN / GKNNRPS / SSRDASGLQVF, the assay gave 2.97, 3.01, 3.05 (controls 6 of 9).
For EGDSLVYYYAN / GFMNRPS / SSRDSSGFQVF, the assay gave nd, nd, nd (controls 5 of 9).
For EGDSLRYYYAM / GKNNNTS / SSRDSSGFQVF, the assay gave 3.72, nd, nd (controls 0 of 9).
For EGDSLRSGEAN / GKNNRPS / SSRDSSGFQVF, the assay gave 1.08, 1.08, 0.51 (controls 8 of 9).
For EGDSLRYYYAN / CKNNRPS / STRDSSGFQVF, the assay gave nd, nd, 4.10 (controls 0 of 9).
For EGDSLRYYRAL / GKNNRPS / SSRDKSGFQVF, the assay gave nd, nd, nd (controls 0 of 9).
For IGDSLRYYYAN / GKNNRPS / SSRDSSGFQVF, the assay gave 2.24, 2.24, 2.08 (controls 2 of 9).
For KGDSLRYYYAV / GKNNRPS / SSRDSSGFQDF, the assay gave nd, 3.84, 3.51 (controls 6 of 9).
For EGDSLRYYSAN / GKNHRPS / SSRDSSGQQVF, the assay gave 2.65, 3.69, 3.65 (controls 1 of 9).
For QGDSLRRYYAN / GKNNRPS / SSRDSSGFQHF, the assay gave 2.61, 2.05, 1.88 (controls 2 of 9).
For EGDSLRYYYAN / GKNNENS / SSRDSSGFQCF, the assay gave nd, 4.75, nd (controls 1 of 9).
For EGDSLRYYYQN / GANNRPS / SSRDSSGFQRF, the assay gave 3.70, 5.35, nd (controls 4 of 9).
For EGVSSRWYYAN / GKNNRPS / SSRDSSGFQVF, the assay gave 2.54, 3.04, 2.41 (controls 3 of 9).
For EGDSLRYYYAN / GKYNRPS / SSRDSSGIQVF, the assay gave 5.93, 3.57, nd (controls 4 of 9).
For EGDSLRYYDAN / GKNNDPS / SSRDSSGFQQF, the assay gave 2.82, 3.24, 2.42 (controls 5 of 9).
For EGDSLRDYYAN / LKNNRPS / SSRDSSGFQVF, the assay gave 4.39, 4.55, nd (controls 2 of 9).
For EGDSLRYYYAN / NKNNRPS / FSRDSSGQQVF, the assay gave nd, 4.66, nd (controls 5 of 9).
For EGDSLRYYYAN / GKNNRPK / SSRDWSGFQVF, the assay gave 2.95, 2.72, 2.73 (controls 3 of 9).
For EGDSLRYYYAN / DKNNRPS / SSRDSFGFQVS, the assay gave 2.61, 2.59, 3.44 (controls 0 of 9).
For EGDSLRYYPAN / GKDNRPS / SSRDSSGFQVH, the assay gave 1.57, 1.79, 1.61 (controls 1 of 9).
For EGDSLRYYPAN / GKNLRPS / SSRDCSGFQVF, the assay gave 1.93, 1.51, 1.21 (controls 1 of 9).
For EGDSLRYYYAN / GKNNNPQ / SSRDSFGFQVF, the assay gave 2.72, 2.60, nd (controls 1 of 9).
For EGDSLRYYYTN / AKNNRPS / SSRDSSGFQVW, the assay gave 3.69, 5.07, nd (controls 1 of 9).
For EGDSLRYEYAN / RKNNRPY / SSRDSSGFQVF, the assay gave nd, 3.51, 2.19 (controls 0 of 9).
For EGDSLRYYSAN / GKNNCPS / SSRDSSLFQVF, the assay gave 3.60, nd, 4.71 (controls 1 of 9).
For EGDSLRYYYAN / GKNNRPS / YSRDSSQFQVF, the assay gave nd, nd, nd (controls 1 of 9).
For EGDSLEYYYHN / GKNNRPS / SSMDSSGFQVF, the assay gave 3.68, 4.03, nd (controls 2 of 9).

Top 4 of the variants detected in all replicates, tightest first:

The variant EGDSLRSGEAN / GKNNRPS / SSRDSSGFQVF showed 1.08, 1.08, 0.51 (controls 8 of 9).
The variant EGDSLRYYPAN / GKNLRPS / SSRDCSGFQVF showed 1.93, 1.51, 1.21 (controls 1 of 9).
The variant EGDSLRYYPAN / GKDNRPS / SSRDSSGFQVH showed 1.57, 1.79, 1.61 (controls 1 of 9).
The variant QGDSLRRYYAN / GKNNRPS / SSRDSSGFQHF showed 2.61, 2.05, 1.88 (controls 2 of 9).

From the AlphaSeq antibody data of Engelhart et al. 2022 (doi:10.1038/s41597-022-01779-4), copy in the FLAb collection.